Values of other authors, collected in patent US9125835B2, “Synergistic combinations to reduce particle dose for targeted treatment of cancer and its metastases” (priority 2010, dated 2015).

Conditions: in vivo, iv; cited from earlier work

Q: Which “entrapped after a single injection” value does the source give for “MAA: human serum albumin macroaggregates, approved pulmonary perfusion diagnostic agents” here?
A: > 90%
